ChEMBL document CHEMBL5584361, “Re-Evaluating PIN1 as a Therapeutic Target in Oncology Using Neutral Inhibitors and PROTACs” (J Med Chem, 2024)
Active and inactive are the calls of the source. The calls are words filed in the database; no cut-off is given here.

By UniProt entry, the sequences of proteins in these tests, tags left out. Where a name states a change or a piece, a line headed by the entry shows the natural chain unless it says otherwise.
UniProt Q13526, whole entry: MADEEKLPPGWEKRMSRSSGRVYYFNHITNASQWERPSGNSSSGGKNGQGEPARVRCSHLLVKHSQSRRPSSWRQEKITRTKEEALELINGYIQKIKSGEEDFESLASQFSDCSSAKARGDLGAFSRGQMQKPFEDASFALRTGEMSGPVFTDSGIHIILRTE
UniProt Q96SW2: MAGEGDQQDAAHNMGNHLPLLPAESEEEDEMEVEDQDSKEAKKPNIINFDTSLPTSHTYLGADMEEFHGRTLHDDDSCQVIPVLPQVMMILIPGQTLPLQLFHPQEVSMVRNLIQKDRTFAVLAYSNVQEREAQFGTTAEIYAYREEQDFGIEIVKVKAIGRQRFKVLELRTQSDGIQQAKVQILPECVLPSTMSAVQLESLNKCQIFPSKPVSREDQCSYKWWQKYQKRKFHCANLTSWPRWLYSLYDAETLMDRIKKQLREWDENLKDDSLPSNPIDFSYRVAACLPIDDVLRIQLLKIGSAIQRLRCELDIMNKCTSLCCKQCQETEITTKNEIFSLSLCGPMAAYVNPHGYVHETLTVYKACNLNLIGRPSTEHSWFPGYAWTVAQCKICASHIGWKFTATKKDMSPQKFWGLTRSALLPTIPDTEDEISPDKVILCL

Key:
[1] = molecular target: Peptidyl-prolyl cis-trans isomerase NIMA-interacting 1 (Homo sapiens, UniProt Q13526); test: Binding affinity to GST-tagged PIN1 (unknown origin) assessed as dissociation constant by SPR analysis
[2] = molecular target: T1, Protein cereblon/Peptidyl-prolyl cis-trans isomerase NIMA-interacting 1 (Homo sapiens, UniProt Q13526+Q96SW2); test: PROTAC activity at CRBN/PIN1 in human MDA-MB-468 cells assessed as induction of PIN1 degradation by measuring maximal efficacy incubated for 24 hrs by high content analysis relative to control; type: cell-based
[3] = Efflux ratio of permeability across basolateral to apical side over apical to basolateral side in MDCK cells incubated for 120 mins by LC-MS/MS analysis; type: ADME, cell-based, Canis lupus familiaris; settings: dog, 2 h
[4] = test system: MDA-MB-468; test: Antiproliferative activity against human MDA-MB-468 cells assessed as inhibition of cell growth incubated for 144 hrs in presence of 1:6 of compound:sulfopin; type: functional, cell-based
[5] = test system: MDA-MB-468; test: Antiproliferative activity against human MDA-MB-468 cells assessed as inhibition of cell growth incubated for 144 hrs in presence of 1:2 of compound:sulfopin; type: functional, cell-based
[6] = test system: MDA-MB-468; test: Antiproliferative activity against human MDA-MB-468 cells assessed as inhibition of cell growth incubated for 144 hrs in presence of 1:18 of compound:sulfopin; type: functional, cell-based
[7] = test system: MDA-MB-468; test: Antiproliferative activity against human MDA-MB-468 cells assessed as inhibition of cell growth incubated for 144 hrs; type: functional, cell-based
[8] = test system: MDA-MB-468; test: Antiproliferative activity against human MDA-MB-468 cells assessed as inhibition of cell growth incubated for 144 hrs in presence of sulfopin; type: functional, cell-based
[9] = test system: MDA-MB-468; test: Antiproliferative activity against human MDA-MB-468 cells assessed as inhibition of cell growth incubated for 144 hrs in presence of 1.5:1 of compound:sulfopin; type: functional, cell-based
[10] = test system: MDA-MB-468; test: Antiproliferative activity against human MDA-MB-468 cells assessed as inhibition of cell growth incubated for 144 hrs in presence of 4.5:1 of compound:sulfopin; type: functional, cell-based
[11] = molecular target: T1, Protein cereblon/Peptidyl-prolyl cis-trans isomerase NIMA-interacting 1; test: PROTAC activity at CRBN/PIN1 in human MDA-MB-468 cells assessed as induction of PIN1 degradation incubated for 24 hrs by Western blotting; type: cell-based; settings: dose 0.001-1 µM
[12] = molecular target: T1, Protein cereblon/Peptidyl-prolyl cis-trans isomerase NIMA-interacting 1; test: PROTAC activity at CRBN/PIN1 in human MDA-MB-468 cells assessed as induction of PIN1 degradation at 0.001 to 1 uM incubated for 24 hrs in presence of sulfopin by Western blotting; type: cell-based; settings: dose 0.001-1 µM
[13] = test system: MDA-MB-468; test: Antiproliferative activity against human MDA-MB-468 cells assessed as inhibition of cell growth incubated for 144 hrs in presence of 1:1.5 of compound:olaparib; type: functional, cell-based
[14] = test system: MDA-MB-468; test: Antiproliferative activity against human MDA-MB-468 cells assessed as inhibition of cell growth incubated for 144 hrs in presence of 2:1 of compound:olaparib; type: functional, cell-based
[15] = test system: MDA-MB-468; test: Antiproliferative activity against human MDA-MB-468 cells assessed as inhibition of cell growth incubated for 144 hrs in presence of 6:1 of compound:olaparib; type: functional, cell-based
[16] = test system: MDA-MB-468; test: Antiproliferative activity against human MDA-MB-468 cells assessed as inhibition of cell growth incubated for 144 hrs in presence of 1:4.5 of compound:olaparib; type: functional, cell-based
[17] = test system: MDA-MB-468; test: Antiproliferative activity against human MDA-MB-468 cells assessed as inhibition of cell growth incubated for 144 hrs in presence of 18:1 of compound:olaparib; type: functional, cell-based
[18] = test system: MDA-MB-468; test: Antiproliferative activity against human MDA-MB-468 cells assessed as inhibition of cell growth incubated for 144 hrs in presence of olaparib; type: functional, cell-based

SMILES: CNC(=O)C(Cc1cn(-c2ccc(C3CCN(C)CC3)cc2)nn1)NC(=O)C1(c2ccccc2)CC1 (configuration not stated)
- Activity [1]: inactive

SMILES: Cc1cccnc1C1(C(=O)NC(Cc2cn(-c3ccc(-c4ccc(C#N)cc4)cc3)nn2)C(=O)NC2CCN(CCCOc3cccc4c3C(=O)N(C3CCC(=O)NC3=O)C4=O)CC2)CC1 (configuration not stated)
- Emax [2]: 91.8%

SMILES: CC(C)(C)NC(=O)C(Cc1cn(-c2ccc(-c3ccc(C#N)cc3)cc2)nn1)NC(=O)C1(c2ccccc2)CC1 (configuration not stated)
- Activity [1]: inactive

SMILES: Cc1ccccc1C1(C(=O)NC(Cc2cn(-c3ccc(-c4ccc(C#N)cc4)cc3)nn2)C(=O)NC2CCN(C)CC2)CC1 (configuration not stated)
- Ratio [3]: 124

SMILES: CNC(=O)C(Cc1cn(-c2ccc(-c3ccc(C#N)cc3)cc2)nn1)NC(=O)C1(c2ccccc2)CCC1 (configuration not stated)
- Activity [1]: inactive

SMILES: Cc1cccnc1C1(C(=O)NC(Cc2cn(-c3ccc(-c4ccc(C#N)cc4)cc3)nn2)C(=O)NCCCOc2cccc3c2C(=O)N(C2CCC(=O)NC2=O)C3=O)CC1 (configuration not stated)
- Emax [2]: 78.9%

SMILES: O=C(c1cc(Cc2n[nH]c(=O)c3ccccc23)ccc1F)N1CCN(C(=O)C2CC2)CC1
- Activity [4]: Active
- Activity [5]: Active
- Activity [6]: Active
- Activity [7]: Active
- Activity [8]: Dose-Dependent Effect
- Activity [9]: Active
- Activity [10]: Active

SMILES: CNC(=O)C(Cc1cn(-c2ccc(-c3ccc(C#N)cc3)cc2)nn1)NC(=O)C1(c2ccccc2)CCCC1 (configuration not stated)
- Activity [1]: inactive

SMILES: Cc1cccnc1C1(C(=O)NC(Cc2cn(-c3ccc(-c4ccc(C#N)cc4)cc3)nn2)C(=O)NC2CCN(CCCCCOc3cccc4c3C(=O)N(C3CCC(=O)NC3=O)C4=O)CC2)CC1 (configuration not stated)
- Activity [11]: Dose-Dependent Effect
- Emax [2]: 92.5%
- Activity [12]: inactive

SMILES: CNC(=O)C(Cc1cn(-c2ccc(-c3ccc(C#N)cc3)cc2)nn1)NC(=O)Cc1ccccc1 (configuration not stated)
- Activity [1]: inactive

SMILES: CNC(=O)C(Cc1cn(-c2ccc(-c3ccc(C#N)cc3)cc2)nn1)NC(=O)C1(c2ccccc2)CCCCC1 (configuration not stated)
- Activity [1]: inactive

SMILES: Cc1cccnc1C1(C(=O)NC(Cc2cn(-c3ccc(-c4ccc(C#N)cc4)cc3)nn2)C(=O)NCCCCOc2cccc3c2C(=O)N(C2CCC(=O)NC2=O)C3=O)CC1 (configuration not stated)
- Emax [2]: 84.1%

SMILES: CC(C)(C)CN(C(=O)CCl)C1CCS(=O)(=O)C1 (configuration not stated)
- Activity [13]: Active
- Activity [14]: Active
- Activity [15]: Active
- Activity [16]: Active
- Activity [17]: Active
- Activity [7]: Active
- Activity [18]: Dose-Dependent Effect
